In one test the target is Mu-type opioid receptor (Homo sapiens, UniProt P35372). The test can be described thus: Receptor Binding Assay: Mu-Opioid Peptide (hMOP): The hMOP receptor binding assay was performed as homogeneous SPA-assay (scintillation proximity assay) using the assay buffer 50 mM TRIS-HCl (pH 7.4) supplemented with 0.052 mg/ml bovine serum albumin (Sigma-Aldrich Co. St. Louis. Mo.). The final assay volume (250 μl/well) included 1 nM of [N-allyl-2.3-3H]naloxone as ligand (PerkinElmer Life Scienc. (In general: Scintillation proximity formats need no separation of bound from free tracer.)

Sequences of proteins named here, by UniProt entry; tags and fusion partners are left off. A change or cut given only in a name is not applied to a line headed by its entry.
UniProt P35372, whole entry, looked up: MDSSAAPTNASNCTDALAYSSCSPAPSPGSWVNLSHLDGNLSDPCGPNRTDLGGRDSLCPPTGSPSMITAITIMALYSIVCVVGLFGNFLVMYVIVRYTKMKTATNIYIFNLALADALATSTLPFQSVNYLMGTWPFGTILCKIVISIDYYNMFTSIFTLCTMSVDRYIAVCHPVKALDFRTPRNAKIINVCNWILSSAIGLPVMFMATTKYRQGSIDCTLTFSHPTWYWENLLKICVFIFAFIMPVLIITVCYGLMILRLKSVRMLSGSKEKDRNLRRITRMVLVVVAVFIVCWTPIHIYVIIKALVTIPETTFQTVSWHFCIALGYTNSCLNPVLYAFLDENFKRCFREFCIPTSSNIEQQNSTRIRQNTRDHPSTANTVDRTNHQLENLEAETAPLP
UniProt P41146: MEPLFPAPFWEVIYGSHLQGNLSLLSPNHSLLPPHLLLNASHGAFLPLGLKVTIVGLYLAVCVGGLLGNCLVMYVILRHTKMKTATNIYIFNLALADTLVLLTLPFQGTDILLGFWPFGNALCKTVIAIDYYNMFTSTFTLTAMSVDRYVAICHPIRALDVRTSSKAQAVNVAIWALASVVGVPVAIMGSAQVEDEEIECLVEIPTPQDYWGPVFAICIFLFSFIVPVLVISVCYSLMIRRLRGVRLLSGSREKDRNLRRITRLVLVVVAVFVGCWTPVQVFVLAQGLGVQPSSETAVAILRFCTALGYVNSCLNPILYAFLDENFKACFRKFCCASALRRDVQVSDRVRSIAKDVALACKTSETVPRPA

The next test concerns the target Nociceptin receptor (Homo sapiens, UniProt P41146). The test can be described thus: Receptor Binding Assay: The hNOP receptor binding assay was performed as homogeneous SPA-assay (scintillation proximity assay) using the assay buffer 50 mM TRIS-HCl. 10 mM MgCl2. 1 mM EDTA (pH 7.4). The final assay volume (250 ul/well) included 0.5 nM of [leucyl-3H]nociceptin as ligand (PerkinElmer Life Sciences. Inc. Boston. Mass. USA). and either test compound in dilution series or 1 uM unlabell.

Ki data for 59 compounds are collected here from ChEMBL document CHEMBL5728091, “3-((hetero-)aryl)-alkyl-8-amino-2-oxo-l,3-diaza-spiro-[4.5]-decane derivatives” (2020).

Each structure is given as a SMILES string.

For orientation: Ki means the equilibrium dissociation constant of an inhibitor or competing ligand from its target. Read a low Ki as tighter binding. Consider `CN(C)[C@]1(c2ccccc2)CC[C@]2(CC1)CN(Cc1ccnc(N3CCOCC3)c1)C(=O)N2`, for which the Ki on Mu-type opioid receptor was 115 nM; on Nociceptin receptor it was 6980 nM.

For `COc1ccc(CN2C[C@]3(CC[C@](c4ccccc4)(N(C)C)CC3)N(CC3(C)CCC3)C2=O)cc1`, the Ki amounted to 14 nM on Mu-type opioid receptor and 675 nM on Nociceptin receptor. For `COCCOCCOCCOCCOCCOCCOc1cccc(CN2C[C@]3(CC[C@](c4ccccc4)(N(C)C)CC3)N(CC3CCC3)C2=O)c1`, the Ki on Mu-type opioid receptor came to 15.5 nM; at Nociceptin receptor, 305 nM. Take `COc1ccc(CN2C[C@]3(CC[C@](c4ccccc4)(N(C)C)CC3)N(CCS(C)(=O)=O)C2=O)cc1`: the Ki at Mu-type opioid receptor worked out at 159 nM; on Nociceptin receptor it was 1680 nM. For the compound `COc1ccc(CN2C[C@]3(CC[C@](c4ccccc4)(N(C)C)CC3)N(CC(=O)NC3(C#N)CC3)C2=O)cc1`, the values for the Ki on Mu-type opioid receptor and on Nociceptin receptor were 41 nM and 2000 nM, respectively. For the compound `CCCNC(=O)CN1C(=O)N(Cc2ccc(OC)cc2)C[C@]12CC[C@](c1ccccc1)(N(C)C)CC2`, the Ki on Mu-type opioid receptor is 24 nM; on Nociceptin receptor it was 1570 nM. In the case of `CCN(C)[C@]1(c2ccccc2)CC[C@]2(CC1)CN(Cc1cccc(C#N)c1)C(=O)N2CC1CCC1`, the Ki at Mu-type opioid receptor is 12 nM; on Nociceptin receptor it was 1420 nM. As for `COc1ccc(CN2C[C@]3(CC[C@](c4ccccc4)(N(C)C)CC3)N(CC3CC3)C2=O)cc1`, the Ki was 21.5 nM at Mu-type opioid receptor and 1310 nM at Nociceptin receptor. Consider `COc1ccc(CN2C[C@]3(CC[C@](c4ccccc4)(N(C)C)CC3)N(C(=O)OCc3ccccc3)C2=O)cc1`, for which the figures for the Ki on Mu-type opioid receptor and on Nociceptin receptor were 160 nM and 250 nM, respectively. With `COc1ccc(CN2C[C@]3(CC[C@@](N)(c4ccccc4)CC3)N(CC3(O)CCC3)C2=O)cc1`, on Nociceptin receptor, the Ki came out at 3840 nM. Take `COCCCN1C(=O)N(Cc2ccc(OC)cc2)C[C@]12CC[C@](c1ccccc1)(N(C)C)CC2`: the Ki on Mu-type opioid receptor turned out to be 11.5 nM; on Nociceptin receptor, 310 nM. Turning to `COc1ccc(CN2C[C@]3(CC[C@](c4ccccc4)(N(C)C)CC3)N(CC(C)(C)C#N)C2=O)cc1`, the Ki amounted to 11.8 nM on Mu-type opioid receptor and 1320 nM on Nociceptin receptor. For the compound `COc1ccc(CN2C[C@]3(CC[C@](c4ccccc4)(N(C)C)CC3)N(CC3CCCCC3)C2=O)cc1`, the Ki at Mu-type opioid receptor amounted to 31 nM; on Nociceptin receptor, 545 nM. Regarding `COc1ccc(CN2C[C@]3(CC[C@](c4ccccc4)(N(C)C)CC3)N(CC(C)(C)OC)C2=O)cc1`, the Ki was determined as 49.5 nM at Mu-type opioid receptor and 920 nM on Nociceptin receptor. For `COCCOCCOCCOCCOCCOCCOCCOCCN1C(=O)N(Cc2ccc(OC)cc2)CC12CCC(c1ccccc1)(N(C)C)CC2` (centres undefined), the results for the Ki at Mu-type opioid receptor and at Nociceptin receptor were 405 nM and 5250 nM, respectively. For `CCN1C(=O)N(Cc2ccccc2)C[C@]12CC[C@](c1ccccc1)(N(C)C)CC2`, in that order: 720 nM and 2480 nM. On to `COc1ccc(CN2C[C@]3(CC[C@](c4ccccc4)(N(C)C)CC3)NC2=O)cc1`, for which the Ki at Mu-type opioid receptor was determined as 91 nM; on Nociceptin receptor, 2640 nM.

Take `CN(C)[C@]1(c2ccccc2)CC[C@]2(CC1)CN(Cc1ccc(C(F)(F)F)nc1)C(=O)N2CC1CCC1`: the Ki on Mu-type opioid receptor was determined as 3.5 nM; at Nociceptin receptor, 150 nM.

Turning to `COc1ccc(CN2C[C@]3(CC[C@](c4ccccc4)(N(C)C)CC3)N(CCCO)C2=O)cc1`, the Ki at Mu-type opioid receptor was found to be 218 nM; at Nociceptin receptor, 4700 nM.

In the case of `CN(C)[C@]1(c2ccccc2)CC[C@]2(CC1)CN(Cc1ccncc1)C(=O)N2`, the values for the Ki on Mu-type opioid receptor and at Nociceptin receptor were 240 nM and 4080 nM, respectively.

As for `CN(C)[C@]1(c2ccccc2)CC[C@]2(CC1)CN(Cc1ccnc(N3CCCCC3)c1)C(=O)N2`, the Ki at Mu-type opioid receptor was found to be 25 nM; on Nociceptin receptor it was 845 nM.

Regarding `COc1ccc(CN2C[C@]3(CC[C@](c4cccc(F)c4)(N(C)C)CC3)N(CC3CCC3)C2=O)cc1`, affinity on Mu-type opioid receptor was put at a Ki of 88.5 nM.

In the case of `COc1ccc(CN2C[C@]3(CC[C@](c4ccccc4)(N(C)C)CC3)N(CC(=O)NCC#N)C2=O)cc1`, the Ki is 330 nM on Mu-type opioid receptor and 5480 nM on Nociceptin receptor. The like results for `CN(C)[C@]1(c2ccccc2)CC[C@]2(CC1)CN(Cc1ccccc1C#N)C(=O)N2CC1CCC1` were, in that order, 5.6 nM and 380 nM.

For the compound `CN(C)[C@]1(c2ccccc2)CC[C@]2(CC1)CN(Cc1ccc(C(N)=O)cc1)C(=O)N2CC1CCC1`, the values for the Ki at Mu-type opioid receptor and at Nociceptin receptor were 17.6 nM and 385 nM, respectively. Regarding `CN[C@]1(c2ccccc2)CC[C@]2(CC1)CN(Cc1cn(CCO)nn1)C(=O)N2CC1CCC1`, the Ki on Mu-type opioid receptor is 31 nM; at Nociceptin receptor it was 82.5 nM.

On to `CN(C)[C@]1(c2ccccc2)CC[C@]2(CC1)CN(CCc1ccncc1)C(=O)N2`, for which the Ki at Mu-type opioid receptor came out at 106 nM; at Nociceptin receptor, 3690 nM.

At Mu-type opioid receptor, `COc1ccc(CN2C[C@]3(CC[C@](c4ccccc4)(N(C)C)CC3)N(CC(=O)O)C2=O)cc1` returned a Ki of 530 nM.

Regarding `CN[C@]1(c2ccccc2)CC[C@]2(CC1)CN(Cc1ccc(OC)cc1)C(=O)N2CC1CCC1`, the Ki at Mu-type opioid receptor turned out to be 10.8 nM; at Nociceptin receptor, 275 nM. `CNC(=O)CCN1C(=O)N(Cc2ccc(OC)cc2)C[C@]12CC[C@](c1ccccc1)(N(C)C)CC2`: the Ki was found to be 325 nM on Mu-type opioid receptor and 3460 nM on Nociceptin receptor. Regarding `COc1ccc(CN2C[C@]3(CC[C@](c4ccccc4)(N(C)C)CC3)N(CCC(C)(C)O)C2=O)cc1`, the figures for the Ki on Mu-type opioid receptor and on Nociceptin receptor were 57 nM and 1700 nM, respectively. Consider `COc1ccc(CN2C[C@]3(CC[C@](c4ccccc4)(N(C)CCO)CC3)N(CC3CCC3)C2=O)cc1`, for which the inhibitory constant (Ki) on Mu-type opioid receptor came to 200 nM; at Nociceptin receptor, 3440 nM. As to `CN(C)[C@]1(c2ccccc2)CC[C@]2(CC1)CN(Cc1c[nH]nn1)C(=O)N2`, the Ki was 405 nM at Mu-type opioid receptor and 5290 nM at Nociceptin receptor.

For `CN(C)C1(c2ccccc2)CCC2(CC1)CN(Cc1cn(CC(N)=O)nn1)C(=O)N2` (centres undefined), the Ki on Mu-type opioid receptor is 340 nM; at Nociceptin receptor, 4940 nM.

Turning to `CN[C@]1(c2ccccc2)CC[C@]2(CC1)CN(Cc1cccc(OC)c1)C(=O)N2CC1CCC1`, the figures for the Ki on Mu-type opioid receptor and at Nociceptin receptor were 11 nM and 255 nM, respectively. For `COc1ccc(CN2C[C@]3(CC[C@](c4ccccc4)(N(C)C)CC3)N(CCC(C)(C)OC)C2=O)cc1`, in that order: 10.1 nM and 195 nM. On to `COc1ccc(CN2C[C@]3(CC[C@](c4ccccc4)(N(C)C)CC3)N(CCCOC(F)(F)F)C2=O)cc1`, for which the Ki turned out to be 19.5 nM at Mu-type opioid receptor and 160 nM on Nociceptin receptor.

In the case of `COc1ccc(CN2C[C@]3(CC[C@](c4ccccc4)(N(C)C)CC3)N(CC3CCOCC3)C2=O)cc1`, the Ki turned out to be 96.5 nM at Mu-type opioid receptor and 2780 nM on Nociceptin receptor. For `COc1ccc(CN2C[C@]3(CC[C@](c4ccccc4)(N(C)C)CC3)N(Cc3cccnc3)C2=O)cc1`, in that order: 49.5 nM and 195 nM. As to `CN(C)[C@]1(c2ccccc2)CC[C@]2(CC1)CN(Cc1ccccc1)C(=O)N2CC1CCC1`, the Ki at Mu-type opioid receptor is 1.3 nM; at Nociceptin receptor, 81 nM. `COCCN(C)[C@]1(c2ccccc2)CC[C@]2(CC1)CN(Cc1ccc(OC)cc1)C(=O)N2CC1CCC1`: the Ki on Mu-type opioid receptor was 195 nM; at Nociceptin receptor, 1920 nM. In the case of `CCCCCCN1C(=O)N(Cc2ccc(OC)cc2)C[C@]12CC[C@](c1ccccc1)(N(C)C)CC2`, the Ki was 43.5 nM on Mu-type opioid receptor and 340 nM at Nociceptin receptor. In the case of `CN(C)[C@]1(c2ccccc2)CC[C@]2(CC1)CN(C1(c3ccccc3)CC1)C(=O)N2CC1(O)CCC1`, the Ki at Mu-type opioid receptor worked out at 18 nM; on Nociceptin receptor it was 99.5 nM. Turning to `COc1ccc(CN2C[C@]3(CC[C@](c4ccc(OC)cc4)(N(C)C)CC3)N(CC3CCC3)C2=O)cc1`, the Ki at Mu-type opioid receptor is 125 nM; on Nociceptin receptor, 18.4 nM. For `COCCC[C@]1(N(C)C)CC[C@@]2(CC1)CN(Cc1ccc(OC)cc1)C(=O)N2CC1CCC1`, the Ki on Mu-type opioid receptor turned out to be 455 nM; on Nociceptin receptor it was 90 nM. As for `CCN(C)[C@]1(c2ccccc2)CC[C@]2(CC1)CN(Cc1cccc(OC)c1)C(=O)N2CC1CCC1`, the Ki at Mu-type opioid receptor was 50 nM; at Nociceptin receptor, 2150 nM. Consider `COc1ccc(CN2C[C@]3(CC[C@](c4ccccc4)(N(C)C)CC3)N(Cc3ccccc3)C2=O)cc1`, for which the Ki on Mu-type opioid receptor is 85.5 nM; at Nociceptin receptor it was 600 nM.

Consider `CN(C)[C@]1(c2ccccc2)CC[C@]2(CC1)CN(Cc1cccc(S(C)(=O)=O)c1)C(=O)N2`, for which the figures for the Ki at Mu-type opioid receptor and on Nociceptin receptor were 145 nM and 5240 nM, respectively. With `COc1ccc(CN2C[C@]3(CC[C@](c4ccccc4)(N(C)C)CC3)N(CCC3CCCCC3)C2=O)cc1`, the Ki worked out at 87.5 nM at Mu-type opioid receptor and 625 nM on Nociceptin receptor. Take `COc1ccc(CN2C[C@]3(CC[C@](c4ccc(O)cc4)(N(C)C)CC3)N(CC3CCC3)C2=O)cc1`: the Ki at Mu-type opioid receptor is 1200 nM; on Nociceptin receptor, 4620 nM. In the case of `COc1ccc(CN2C[C@]3(CC[C@](c4ccccc4)(N(C)C)CC3)N(CC3(O)CCCC3)C2=O)cc1`, the figures for the Ki at Mu-type opioid receptor and at Nociceptin receptor were 9.1 nM and 480 nM, respectively. Consider `CN(C)[C@]1(c2ccccc2)CC[C@]2(CC1)CN(Cc1ccccn1)C(=O)N2`, for which affinity at Mu-type opioid receptor was put at a Ki of 190 nM. Regarding `COc1ccc(CN2C[C@]3(CC[C@](c4ccccc4)(N(C)C)CC3)N(C)C2=O)cc1`, the Ki on Mu-type opioid receptor amounted to 180 nM; on Nociceptin receptor, 2390 nM. On to `COc1ccc(CN2C[C@]3(CC[C@](c4ccccc4)(N(C)C)CC3)N(CC(C)(C)C)C2=O)cc1`, for which the Ki is 39 nM on Mu-type opioid receptor and 1240 nM at Nociceptin receptor. For `CN(C)[C@]1(c2ccccc2)CC[C@]2(CC1)CN(C(C)(C)c1ccccc1)C(=O)N2`, the Ki on Mu-type opioid receptor was found to be 325 nM.

As for `C=CCN(C)[C@]1(c2ccccc2)CC[C@]2(CC1)CN(Cc1ccc(OC)cc1)C(=O)N2CC1CCC1`, the Ki at Mu-type opioid receptor was determined as 690 nM. At Nociceptin receptor, `COc1ccc(CN2C[C@]3(CC[C@](c4ccccc4)(N(C)C)CC3)N(C[C@H](C)O)C2=O)cc1` yielded a Ki of 90 nM. With `CN(C)[C@]1(c2ccccc2)CC[C@]2(CC1)CN(CCc1cncnc1)C(=O)N2`, the affinity at Mu-type opioid receptor, expressed as Ki, was 240 nM. As for `CN(C)[C@]1(c2ccccc2)CC[C@]2(CC1)CN(Cc1cccnc1)C(=O)N2`, the Ki on Mu-type opioid receptor came to 250 nM.
